Earlier results as cited in patent publication US11634428B2, “Deuterated angiotensin-converting enzyme-2 (ACE-2) inhibitors” (priority 2021, dated 2023).

The chains behind the UniProt entries cited, without tags or fusion partners. Residues count along the entry.
UniProt Q9BYF1, 18-805: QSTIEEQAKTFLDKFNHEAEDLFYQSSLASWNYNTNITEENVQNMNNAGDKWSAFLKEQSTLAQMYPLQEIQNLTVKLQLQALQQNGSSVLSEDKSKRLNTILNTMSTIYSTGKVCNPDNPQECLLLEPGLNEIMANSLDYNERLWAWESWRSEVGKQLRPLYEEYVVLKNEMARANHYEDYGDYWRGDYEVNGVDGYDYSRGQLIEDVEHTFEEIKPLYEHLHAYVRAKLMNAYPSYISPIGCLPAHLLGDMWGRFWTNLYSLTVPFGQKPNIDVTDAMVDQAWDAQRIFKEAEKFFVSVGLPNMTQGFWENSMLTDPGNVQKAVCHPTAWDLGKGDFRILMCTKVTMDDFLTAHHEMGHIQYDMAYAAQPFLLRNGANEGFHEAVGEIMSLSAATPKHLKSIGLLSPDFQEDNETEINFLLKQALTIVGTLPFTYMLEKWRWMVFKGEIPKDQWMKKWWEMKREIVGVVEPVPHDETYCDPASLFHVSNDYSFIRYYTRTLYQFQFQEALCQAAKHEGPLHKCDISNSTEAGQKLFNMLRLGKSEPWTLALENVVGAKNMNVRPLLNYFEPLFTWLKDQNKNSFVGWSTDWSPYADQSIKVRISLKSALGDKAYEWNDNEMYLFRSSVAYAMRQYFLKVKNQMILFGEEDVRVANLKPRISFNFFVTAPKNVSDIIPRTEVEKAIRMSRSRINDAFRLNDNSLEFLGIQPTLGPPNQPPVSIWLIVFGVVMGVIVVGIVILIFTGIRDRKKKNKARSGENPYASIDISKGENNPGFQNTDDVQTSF

Target: ACE-2 (Homo sapiens, UniProt Q9BYF1)
Details: known ACE inhibitors

**Q.** Which “suppression of the catalytic activity of ACE-2” value does the source give for `CCOC(=O)[C@H](CCc1ccccc1)N[C@@H](C)C(=O)N1CCC[C@H]1C(=O)O` [enalapril] here?
**A.** Its value is “not suppressed”.
